From ChEMBL document CHEMBL5316308, “BET-HDAC Dual Inhibitors for Combinational Treatment of Breast Cancer and Concurrent Candidiasis” (J Med Chem, 2023)

Molecular target: T1, Histone deacetylase 8 (Homo sapiens, UniProt Q9BY41)
T1 sequence (Q9BY41 whole entry): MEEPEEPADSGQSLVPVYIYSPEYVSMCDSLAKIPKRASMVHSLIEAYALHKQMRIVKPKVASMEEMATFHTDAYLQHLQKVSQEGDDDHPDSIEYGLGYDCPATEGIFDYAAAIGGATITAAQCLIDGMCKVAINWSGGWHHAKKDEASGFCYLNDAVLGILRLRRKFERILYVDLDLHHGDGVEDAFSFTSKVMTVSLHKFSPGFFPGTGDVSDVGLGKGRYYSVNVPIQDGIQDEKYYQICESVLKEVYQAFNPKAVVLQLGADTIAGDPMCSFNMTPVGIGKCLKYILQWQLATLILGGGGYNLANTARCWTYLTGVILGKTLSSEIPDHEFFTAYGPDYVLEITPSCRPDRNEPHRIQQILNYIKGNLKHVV
Assay: Inhibition of C-terminal His-tagged full-length recombinant human HDAC8 expressed in baculovirus infected Sf9 insect cells using Ac-Leu-Gly-Lys(Tfa)-AMC as substrate incubated for 30 mins by fluorescence based assay

- IC50: 3.82 µM
Structure (SMILES): O=C(CCCCCCC(=O)Nc1ccccc1)NO [VORINOSTAT]
